Key:
MDA-MB-436 [1] = assay: Cytotoxicity against human MDA-MB-436 cells assessed as inhibition of cell viability incubated for 4 days by CellTiterGlo luminescence assay; conditions: MDA-MB-436, 96 h
MDA-MB-436 [2] = assay: Cytotoxicity against human MDA-MB-436 cells assessed as inhibition of cell viability incubated for 14 days with three intermittent intervals by CellTiterGlo luminescence assay; conditions: MDA-MB-436, 336 h
HEK293 = assay: Cytotoxicity against HEK293 cells assessed as inhibition of cell viability; format: cell-based; conditions: Homo sapiens

Cn1ncnc1[C@H]1c2n[nH]c(=O)c3cc(F)cc(c23)N[C@@H]1c1ccc(F)cc1 [TALAZOPARIB]
IC50 (MDA-MB-436 [1]): 0.38 nM | IC50 (MDA-MB-436 [2]): 0.012 nM | IC50 (HEK293): 4.95 nM

Source: ChEMBL document CHEMBL4673259, “Discovery of isoquinolinone and naphthyridinone-based inhibitors of poly(ADP-ribose) polymerase-1 (PARP1) as anticancer agents: Structure activity relationship and preclinical characterization” (Bioorg Med Chem, 2020)
